From patent publication US10167284B2, “Spirocyclic compounds as agonists of the muscarinic M1 receptor and/or M4 receptor” (HEPTARES THERAPEUTICS LIMITED, priority 2015, dated 2019)

The chains behind the UniProt entries cited, without tags or fusion partners.
UniProt P11229, whole entry: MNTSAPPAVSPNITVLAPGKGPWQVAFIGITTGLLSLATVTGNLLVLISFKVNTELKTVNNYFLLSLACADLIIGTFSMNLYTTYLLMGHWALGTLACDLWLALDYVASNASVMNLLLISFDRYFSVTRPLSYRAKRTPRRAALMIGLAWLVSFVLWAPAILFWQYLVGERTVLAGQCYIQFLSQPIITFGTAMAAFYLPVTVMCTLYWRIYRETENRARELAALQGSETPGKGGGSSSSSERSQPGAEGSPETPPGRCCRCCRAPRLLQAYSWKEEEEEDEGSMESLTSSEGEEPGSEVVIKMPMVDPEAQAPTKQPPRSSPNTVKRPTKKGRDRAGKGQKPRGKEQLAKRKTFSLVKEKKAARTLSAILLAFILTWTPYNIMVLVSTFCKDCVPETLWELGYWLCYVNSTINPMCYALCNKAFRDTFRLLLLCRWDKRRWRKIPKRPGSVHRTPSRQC
UniProt P08173, whole entry: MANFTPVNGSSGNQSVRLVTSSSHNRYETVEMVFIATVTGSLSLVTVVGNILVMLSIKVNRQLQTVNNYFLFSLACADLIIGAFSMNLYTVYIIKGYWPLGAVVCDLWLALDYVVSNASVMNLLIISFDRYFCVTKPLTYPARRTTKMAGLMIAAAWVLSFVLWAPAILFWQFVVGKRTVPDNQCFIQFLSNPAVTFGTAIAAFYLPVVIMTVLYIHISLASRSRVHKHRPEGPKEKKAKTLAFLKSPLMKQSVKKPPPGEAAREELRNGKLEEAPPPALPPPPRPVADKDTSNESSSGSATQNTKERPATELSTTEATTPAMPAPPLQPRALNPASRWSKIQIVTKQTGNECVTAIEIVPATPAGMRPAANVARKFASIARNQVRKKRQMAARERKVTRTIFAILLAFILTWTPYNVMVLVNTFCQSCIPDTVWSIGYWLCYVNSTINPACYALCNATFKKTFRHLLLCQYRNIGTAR
UniProt P20309, whole entry: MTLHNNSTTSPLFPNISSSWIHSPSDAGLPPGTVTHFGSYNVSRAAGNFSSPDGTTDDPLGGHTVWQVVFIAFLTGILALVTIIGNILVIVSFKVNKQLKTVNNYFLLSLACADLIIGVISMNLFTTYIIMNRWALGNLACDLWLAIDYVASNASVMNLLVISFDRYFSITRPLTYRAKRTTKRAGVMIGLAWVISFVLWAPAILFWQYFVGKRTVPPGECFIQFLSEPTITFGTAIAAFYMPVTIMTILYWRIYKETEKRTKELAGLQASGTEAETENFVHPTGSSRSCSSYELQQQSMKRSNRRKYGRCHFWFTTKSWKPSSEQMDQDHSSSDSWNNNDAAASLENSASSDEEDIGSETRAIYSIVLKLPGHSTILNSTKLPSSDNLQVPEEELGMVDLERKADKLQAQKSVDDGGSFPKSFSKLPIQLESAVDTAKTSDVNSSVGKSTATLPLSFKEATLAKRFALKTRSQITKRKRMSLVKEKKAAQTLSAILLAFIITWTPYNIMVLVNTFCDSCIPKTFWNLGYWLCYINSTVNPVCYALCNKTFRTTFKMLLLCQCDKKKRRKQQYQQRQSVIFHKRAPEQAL
UniProt P08172, whole entry: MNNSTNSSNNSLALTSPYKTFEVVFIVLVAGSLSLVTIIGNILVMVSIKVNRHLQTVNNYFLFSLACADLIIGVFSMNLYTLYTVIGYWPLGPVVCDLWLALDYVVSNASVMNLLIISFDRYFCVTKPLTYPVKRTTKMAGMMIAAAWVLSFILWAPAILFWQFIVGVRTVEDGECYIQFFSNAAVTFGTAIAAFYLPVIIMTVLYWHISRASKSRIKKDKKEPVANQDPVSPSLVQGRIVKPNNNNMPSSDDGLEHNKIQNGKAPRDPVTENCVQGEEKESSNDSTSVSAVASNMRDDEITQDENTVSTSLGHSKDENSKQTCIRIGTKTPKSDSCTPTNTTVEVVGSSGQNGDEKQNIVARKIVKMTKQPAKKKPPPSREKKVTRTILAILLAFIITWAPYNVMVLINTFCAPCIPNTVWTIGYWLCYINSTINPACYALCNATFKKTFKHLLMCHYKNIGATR

What was measured:
[1] = biological target: human muscarinic M1 receptor (Homo sapiens, UniProt P11229); assay: Alphascreen Surefire phospho-ERK1/2 functional assay, M1; settings: CHO cells stably expressing human M1; for M1 % Emax cf. ACh: Emax relative to ACh; for pEC50 M1: phospho-ERK1/2
[2] = biological target: human muscarinic M4 receptor (Homo sapiens, UniProt P08173); assay: Alphascreen Surefire phospho-ERK1/2 functional assay, M4; assay type: cell-based; settings: CHO cells stably expressing human M4; for M4 % Emax cf. ACh: Emax relative to ACh; for pEC50 M4: phospho-ERK1/2
[3] = biological target: human muscarinic M3 receptor (Homo sapiens, UniProt P20309); assay: Alphascreen Surefire phospho-ERK1/2 functional assay, M3; settings: CHO cells stably expressing human M3
[4] = biological target: human muscarinic M2 receptor (Homo sapiens, UniProt P08172); assay: Alphascreen Surefire phospho-ERK1/2 functional assay, M2; settings: CHO cells stably expressing human M2

Row | M1 % Emax cf. ACh [1] | pEC50 M1 [1] | M4 % Emax cf. ACh [2] | pEC50 M4 [2] | M3 % Emax cf. ACh ([3]; Emax relative to ACh) | pEC50 M3 ([3]; phospho-ERK1/2) | M2 % Emax cf. ACh ([4]; Emax relative to ACh) | pEC50 M2 ([4]; phospho-ERK1/2) | Structure (SMILES)
1 | (66) % | 6.0 | (91) % | 6.1 |  |  |  |  | CCCC(=O)N1CCC2(CC(N3CCC4(CC3)CNC(=O)O4)C2)C1 (single isomer, unassigned)
2 | (50) % | 6.1 | (74) % | 6.4 |  |  |  |  | O=C1NCC2(CCN(C3CC4(CCN(C(=O)OCCF)C4)C3)CC2)O1 (single isomer, unassigned)
3 | (6) % | <4.7 | (51) % | 6.1 |  |  |  |  | [2H]C([2H])([2H])N1C(=O)CC2(CCN(C3CC4(CCN(C(=O)OCC)C4)C3)CC2)N1CC (single isomer, unassigned)

The next lines start with the molecule.

Row | Structure (SMILES) | M1 % Emax cf. ACh [1] | pEC50 M1 [1] | M4 % Emax cf. ACh [2] | pEC50 M4 [2] | M3 % Emax cf. ACh ([3]; Emax relative to ACh) | pEC50 M3 ([3]; phospho-ERK1/2) | M2 % Emax cf. ACh ([4]; Emax relative to ACh) | pEC50 M2 ([4]; phospho-ERK1/2)
4 | COC(=O)N1CCC2(CC(N3CCC4(CC3)CNC(=O)N4)C2)C1 (single isomer, unassigned) | (113) % | 5.6 | (68) % | 5.5 |  |  |  | 
5 | [2H]C([2H])([2H])N1C(=O)CC2(CCN(C3CC4(CCN(C(=O)OCC)C4)C3)CC2)N1CCC (single isomer, unassigned) | (86) % | 6.2 | (111) % | 7.4 |  |  |  | 
6 | [2H]C([2H])([2H])N1C(=O)OC2(CCN(C3CC4(CCN(C(=O)OCC)C4)C3)CC2)C1CC (single isomer, unassigned) | (90) % | 6.9 | (76) % | 7.6 | (3) % | <4.7 | (3) % | <4.7
